Assay: Phase solubility analysis of RIF with cyclodextrins (binding constant, complexation efficiency)
Assay type: physicochemical
Protocol: Phase solubility analysis was carried out similarly to the saturation solubility studies by using a range of concentrations of CDs in buffered solutions at different pH vales. […] Solubility of each drug was determined and plotted in a graph with the nominal concentration of cyclodextrin on the x-axis and the nominal concentration of RIF on the y-axis.
In order to determine the binding strength of CD and RIF, the binding constant (Ks) was calculated based on the phase diagram of solubility studies. […] (1) Ks=[RIF−CD]/[RIF]free·[CD]free CD+RIF↔KsCD−RIF where [RIF − CD], [RIF]free, and [CD]free are concentration of the RIF-CD complexes, free RIF, and free CD, respectively.
[RIF]free can be considered as RIF initial solubility (S0), therefore Equation (2) becomes:(2) Ks=[RIF−CD]/S0·[CD]free
The phase solubility diagram was constructed by plotting the RIF molar concentration on the y-axis and the CD molar concentration on the x-axis. […] (3) Ks=slope/S0·(1−slope)
The complexation efficiency (CE) was determined by using the slope of the phase solubility diagram according to Equation (4). (4) CE=[CD−RIF]/[CD]free=S0·Ks=slope/1−slope
Based on CE determination, the CD molar ratio was calculated using Equation (5). (5) Drug :CD molar ratio=1 : (CE+1)/CE

hydroxypropyl-γCD [HP-γCD]
CE (complexation efficiency) (pH 4.0): 0.32 | Ks (binding constant) (pH 4.0, RIF-CD 1:1 complex): 738 M⁻¹ | CE (complexation efficiency) (pH 7.0): 0.77 | Ks (binding constant) (pH 7.0, RIF-CD 1:1 complex): 674 M⁻¹ | CE (complexation efficiency) (pH 9.0): 0.99 | Ks (binding constant) (pH 9.0, RIF-CD 1:1 complex): 722 M⁻¹

Reference: PMC8781390, “Inclusion Complexes of Rifampicin with Native and Derivatized Cyclodextrins: In Silico Modeling, Formulation, and Characterization” (Pharmaceuticals, 2021)
